## Binding of CDR-mutated scFvs to a peptide of the spike HR2 region

The measurements come from Engelhart et al. 2022 (doi:10.1038/s41597-022-01779-4) through the FLAb antibody collection.

Binding partner: SARS-CoV-2 spike HR2 peptide, sequence PDVDLGDISGINAS.

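Variants in AAYL49 differ from the parent at up to three CDR positions; double and triple changes were sampled at random. AlphaSeq pools MATa yeast showing the antibodies with MATalpha yeast showing the peptide. Binding brings cells together so that they mate, and sequencing counts the barcode pairs among the diploids. Each replicate has its own calibration line, from reference interactions of the BCL2 family. There are three technical replicates.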

Parent: Ab-14, a human scFv built as VH, a 15-residue (Gly4Ser)3 linker, VL. Only the CDRs of the heavy chain vary.
VH: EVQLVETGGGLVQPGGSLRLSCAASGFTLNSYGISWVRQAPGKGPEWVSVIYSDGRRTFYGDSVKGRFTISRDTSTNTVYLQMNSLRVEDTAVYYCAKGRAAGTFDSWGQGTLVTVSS
VL: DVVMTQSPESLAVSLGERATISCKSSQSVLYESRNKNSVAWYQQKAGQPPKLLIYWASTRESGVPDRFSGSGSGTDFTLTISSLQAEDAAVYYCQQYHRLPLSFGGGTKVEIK

Substitutions are numbered in sequence along the VH above, starting at 1 (not Kabat). Scale: log10 of Kd in nM, estimated from mating counts; low values are strong binders. Averages over replicates are reported, and they cover detected replicates only. "n.d." marks a missing value. The strain was present, yet no cells mated with the target were sequenced in that replicate, which points to weak or no binding. Empty control strains, which show no peptide, gave a signal in 15% of pairings with library AAYL49; the median was 4.06 and 95% of these signals were weaker than 2.83. No background was subtracted. The control count says in how many pairings with the empty strains this scFv gave a signal, with their mean in brackets.

changes,"replicates, log10 nM","log10 Kd (nM), mean",control signals
Y32K+Y52V+G61K,n.d. / n.d. / n.d.,n.d.,2/9 (2.99)
N30D+S35I+Y60R,5.58 / 4.78 / n.d.,5.18,4/9 (4.57)
V50I+I51L+D106T,4.79 / 4.53 / 4.32,4.55,5/9 (4.24)
N30D+S31F+R57G,4.24 / n.d. / n.d.,4.24,0/9
Y32A+Y52H+D54Q,n.d. / 3.80 / n.d.,3.80,5/9 (4.27)
T58Y+G99T+A101C,n.d. / 4.36 / n.d.,4.36,1/9 (4.17)
G26Q+N30F+D106M,3.10 / 3.89 / 4.28,3.76,0/9
D54K+V64M+A102V,n.d. / n.d. / n.d.,n.d.,1/9 (3.87)
L29W+N30Y+Y60S,n.d. / n.d. / n.d.,n.d.,0/9
G33V+G61H+S63W,4.71 / 4.05 / n.d.,4.38,5/9 (3.85)
R56W+D62T+A102M,n.d. / n.d. / n.d.,n.d.,1/9 (4.55)
F27H+Y32H+A102D,n.d. / 3.19 / n.d.,3.19,4/9 (4.82)
F27M+L29T+R57K,n.d. / n.d. / n.d.,n.d.,0/9
R57S+F59A+D106Q,n.d. / 3.30 / n.d.,3.30,1/9 (5.15)
G33P+R57H+R100E,n.d. / n.d. / n.d.,n.d.,0/9
G33H+D62H+S63N,n.d. / n.d. / n.d.,n.d.,0/9
N30A+Y60S+G103T,n.d. / n.d. / n.d.,n.d.,0/9
L29V+D62H+F105G,1.97 / 2.28 / 3.06,2.44,1/9 (2.77)
F27T+Y52S+V64L,n.d. / 3.99 / 3.89,3.94,2/9 (4.70)
G26D+I34Y+S107E,n.d. / n.d. / n.d.,n.d.,1/9 (3.52)
S31L+V50A+F59I,2.52 / 2.09 / 3.52,2.71,4/9 (4.06)
G26T+I34A+R100T,n.d. / 4.21 / n.d.,4.21,2/9 (3.64)
N30D+Y52T,4.28 / 3.32 / 3.33,3.65,5/9 (4.32)
S35W+S107T,4.18 / n.d. / n.d.,4.18,2/9 (5.30)
Y32A+R56A+T58L,n.d. / n.d. / n.d.,n.d.,0/9
Y32C+S63M+D106I,n.d. / 2.91 / n.d.,2.91,0/9
D62R+T104E+S107R,n.d. / n.d. / n.d.,n.d.,2/9 (4.07)
L29R+G99A+F105W,n.d. / 3.09 / 3.80,3.44,1/9 (4.07)
F27N+D54N+G61A,3.40 / 4.39 / 3.23,3.67,2/9 (4.44)
G33S+R56C+T58M,5.85 / n.d. / 4.12,4.98,2/9 (4.14)
T58C+G99Q+A102Q,n.d. / 4.48 / n.d.,4.48,0/9
D54P+G55T+R57P,3.81 / 4.26 / 4.64,4.24,3/9 (4.72)
F27K+Y52T+D54R,n.d. / n.d. / n.d.,n.d.,0/9
G55Q+R56F+T58K,n.d. / n.d. / n.d.,n.d.,0/9
F27H+R100Y+A101I,3.22 / 2.77 / 2.71,2.90,3/9 (3.72)
V50S+D106N,4.32 / n.d. / 4.58,4.45,6/9 (3.92)
T28V+I34K+S107Y,n.d. / n.d. / 3.29,3.29,3/9 (4.29)
S31F+Y32K+Y52E,n.d. / n.d. / n.d.,n.d.,6/9 (4.95)
F27K+Y32T+V64W,n.d. / n.d. / n.d.,n.d.,0/9
I51K+Y52A+K65S,4.01 / 5.05 / n.d.,4.53,4/9 (4.07)
F59H+G61W+D106Y,n.d. / n.d. / n.d.,n.d.,0/9
R57A+K65G+A102W,n.d. / n.d. / n.d.,n.d.,0/9
N30I+V50E+D54P,n.d. / n.d. / n.d.,n.d.,1/9 (3.02)
G26Q+G33F+G99R,n.d. / n.d. / n.d.,n.d.,2/9 (3.73)
Y32F+Y52S+D106S,n.d. / n.d. / n.d.,n.d.,1/9 (3.20)
G61I+F105H+S107R,5.21 / 3.80 / 4.36,4.46,6/9 (4.92)

Repeated from above, the 7 best binders with a signal in all replicates:

{"changes": "L29V+D62H+F105G", "replicates, log10 nM": "1.97 / 2.28 / 3.06", "log10 Kd (nM), mean": "2.44", "control signals": "1/9 (2.77)"}
{"changes": "S31L+V50A+F59I", "replicates, log10 nM": "2.52 / 2.09 / 3.52", "log10 Kd (nM), mean": "2.71", "control signals": "4/9 (4.06)"}
{"changes": "F27H+R100Y+A101I", "replicates, log10 nM": "3.22 / 2.77 / 2.71", "log10 Kd (nM), mean": "2.90", "control signals": "3/9 (3.72)"}
{"changes": "N30D+Y52T", "replicates, log10 nM": "4.28 / 3.32 / 3.33", "log10 Kd (nM), mean": "3.65", "control signals": "5/9 (4.32)"}
{"changes": "F27N+D54N+G61A", "replicates, log10 nM": "3.40 / 4.39 / 3.23", "log10 Kd (nM), mean": "3.67", "control signals": "2/9 (4.44)"}
{"changes": "G26Q+N30F+D106M", "replicates, log10 nM": "3.10 / 3.89 / 4.28", "log10 Kd (nM), mean": "3.76", "control signals": "0/9"}
{"changes": "D54P+G55T+R57P", "replicates, log10 nM": "3.81 / 4.26 / 4.64", "log10 Kd (nM), mean": "4.24", "control signals": "3/9 (4.72)"}